Experimental data from patent US7611848B2, “Method for selecting allosteric regulators of class III G protein-coupled receptors” (Centre National de la Recherche Scientifique (CNRS), priority 2003, dated 2009).

Sequences of proteins named here, by UniProt entry; tags and fusion partners are left off. Residues count along the entry.
UniProt P31424, 568-864, stated change not applied: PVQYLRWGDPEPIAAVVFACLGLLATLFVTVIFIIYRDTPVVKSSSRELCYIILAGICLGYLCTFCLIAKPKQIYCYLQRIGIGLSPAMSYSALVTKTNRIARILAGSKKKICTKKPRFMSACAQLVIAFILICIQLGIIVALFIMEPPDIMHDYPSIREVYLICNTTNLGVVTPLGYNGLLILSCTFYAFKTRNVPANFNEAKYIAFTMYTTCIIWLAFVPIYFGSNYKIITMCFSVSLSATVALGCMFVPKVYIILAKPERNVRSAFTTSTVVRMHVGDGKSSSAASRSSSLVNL

Target: T1, mGlu5ΔS protein (heptahelical domain of the mGlu5 receptor) (Rattus norvegicus, UniProt P31424)
T1 construct: between residue P568, located 11 residues before the first transmembrane domain, and residue L864; signal peptide of the mGlu5 receptor (N); expressed in transfected cells; host or cells: HEK293
Assay: IP production in HEK293 cells transiently expressing truncated mGlu5ΔS protein
Assay type: cell-based
Conditions: 100 μM glutamate (FIG. 3)
Text: The results correspond to the ratio of the production of IP to the radioactivity remaining in the membranes, and are expressed as percentage baseline production of IP.
The results correspond to the ratio of the production of IP to the radioactivity remaining in the membranes.
In the context of the invention, the measurement of the level of activity of the GPCR-III-A can be carried out by any conventional method known to those skilled in the art that is suitable for measuring the activity of a GPCR-III. Among these methods, mention may be made, by way of example, of measurement of the level of production of inositol phosphates (IPs; see Experimental Section, below; Berridge, 1983; Brandish et al., 2003), measurement of […] (Milligan, 2003), measurement of intracellular calcium signals using fluorescent markers such as Fluo3 or Fluo4, and measurement of cAMP production, the latter two methods being conventional and well known to those skilled in the art.
The portion of the cDNA of the mGlu5 receptor encoding its heptahelical domain between residue P568, located 11 residues before the first transmembrane domain, and residue L864, located 37 residues after the 7th transmembrane domain, was amplified by PCR (primers SEQ ID No.1 and SEQ ID No.2), including, respectively, the restriction sites of the Mlu-I and Xba-I enzymes at the 5′ and 3′ ends (FIG. 2). […]

Substance: glutamate
- effect of glutamate on IP production: not in the cells expressing the mGlu5ΔS protein
